Antibody variant affinities, Ab-14 light chain, assay B

The measurements come from Li et al. 2023 (doi:10.1038/s41467-023-39022-2) through the FLAb antibody collection.

All variants were tested on one target, the spike HR2 peptide PDVDLGDISGINAS (SARS-CoV-2).

Parent: Ab-14, a human scFv built as VH, a 15-residue (Gly4Ser)3 linker, VL. Only the CDRs of the light chain vary.
VH: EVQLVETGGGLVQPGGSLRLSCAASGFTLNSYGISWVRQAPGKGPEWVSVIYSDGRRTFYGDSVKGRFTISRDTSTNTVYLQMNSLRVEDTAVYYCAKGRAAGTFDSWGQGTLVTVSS
VL: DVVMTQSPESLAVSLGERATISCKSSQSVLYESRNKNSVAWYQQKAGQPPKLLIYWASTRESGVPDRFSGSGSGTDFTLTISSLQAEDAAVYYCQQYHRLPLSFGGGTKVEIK

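Phage display of a naive human antibody library on the peptide gave the parent. This is the validation round: designs drawn from the data on random variants, tested in the same kind of assay. Their group label is 14L_En_Gibbs (En: ensemble of fine-tuned language models; Gibbs: Gibbs sampling). The scFvs were displayed on barcoded MATa yeast, the peptide on MATalpha yeast. Pairs that bind mate more often; barcode pairs of the diploids are counted by sequencing. A regression on co-assayed BCL2-family reference pairs converts the normalised counts of each replicate to an apparent Kd. There are six technical replicates.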

Variants are written as CDR1, CDR2 and CDR3 of the light chain (limits as in the source). Parent: KSSQSVLYESRNKNSVA, WASTRES, QQYHRLPLS.
Numbers give log10(Kd / nM), so 0 is 1 nM and 3 is 1 µM. Smaller is tighter.
"nd" means that the variant was in the library but no mating with the target was seen in that replicate; the authors take this as a sign of poor binding, and no number exists.

CDR-L1	CDR-L2	CDR-L3	replicates, log10 nM	signal with controls
KIRVQQYSQSEMEDNIA	QESTRHQ	QQYFRLPLS	0.61 1.11 1.18 1.07 0.84 1.32	1 of 18 (2.88)
MIKSENIEVGNYQNSIA	DGASTMA	QQYYRLPLA	0.17 -0.14 0.04 -0.35 -0.18 0.13	0 of 18
KLDMNELGQSQNSSCVA	GSAQKCS	QQYSRLPLS	1.56 1.47 1.27 2.11 1.91 1.81	2 of 18 (2.98)
HIQDARGGLSSQWNSVA	STEERSH	QQYHRLPLS	0.19 0.18 0.26 -0.34 -0.19 0.17	0 of 18
RLWQQMYGFNIHANAIA	SGKERYW	QQYARLPLS	2.59 2.02 1.89 1.85 2.76 2.55	0 of 18
QFTQNIFYGQRDDNSIA	HADELVK	QQYDRFPLA	1.73 2.05 nd 2.29 2.77 nd	0 of 18
NVRDSLGYEQNVGSAVA	EASQVED	QQYYTLPLA	0.89 1.13 0.63 0.63 0.71 0.92	0 of 18
QFHSTMAGDQRNVHSIA	NATAAVP	QYYFRLPLS	0.98 0.57 0.89 0.52 1.09 1.45	2 of 18 (2.90)
KLWGRCMDEELINYNVA	NGRLAVQ	QQYDRLPLS	nd nd nd nd 1.75 2.12	0 of 18
QVQAFNEHEKDQTQAMA	EATMRDA	QQYERLPLS	0.63 0.63 0.66 0.47 0.29 0.47	1 of 18 (2.24)
VFQGQWDGVTTTNSAVA	NVDERME	QQYNRLPLM	0.20 0.25 0.24 0.30 0.23 0.27	0 of 18
KIEWYPMENRGTIQAIA	EASTIYN	QQYMHLPLS	nd nd nd nd nd nd	0 of 18
MIDMGEAPNGQQTSHIA	QGHLKAE	QQYYRLPLC	0.65 0.74 0.79 0.59 0.97 0.42	2 of 18 (3.16)
KISINQMHYNKMRSAIA	NTNQKAM	QQYFHLPLM	0.99 0.61 0.21 0.49 1.31 1.07	0 of 18
RIDAYPPIQGNNIDSVA	ENAIRLD	QQYARLPLS	1.34 1.30 1.85 1.49 2.04 1.59	1 of 18 (1.13)
KLQNFSQEINGIWNSIA	DETMKHT	QHYDRLPLV	nd nd nd 1.80 nd 1.45	1 of 18 (2.34)
IIEQGQWEQEQNQNAMA	NGETRMR	QQYYKLPLV	0.54 1.73 1.27 0.99 0.88 0.96	0 of 18
KFQNLMGTMGKQNQNIA	QGAITRV	QQYQRLPLW	2.00 2.34 2.05 1.68 1.56 1.67	0 of 18
ILMQPYKELGAAKDNIA	DGSIRLD	QQYHRLPLV	0.76 0.59 1.07 0.35 0.58 1.04	1 of 18 (1.76)
AVSIEHMENTAIWNAIA	DTSLRNN	QQYYHLPLS	1.60 2.48 0.91 1.72 1.27 2.74	0 of 18
KLSSHYFESYGERQAVA	DNEATMN	QQYHYLPLS	2.14 2.83 nd 2.52 nd 1.85	0 of 18
TLGYQPTEMRDNKHAVA	DDEARTR	QQYMRLPLS	0.43 0.18 0.35 0.39 0.25 0.67	1 of 18 (2.85)
KVSIFMLTMDNAWSSIA	NMAAERT	QQYQRLPLS	nd nd nd nd nd nd	0 of 18
HVHMLMAIWQEISNNIA	DAQNRNA	QQYFRLPLA	nd nd nd nd nd nd	0 of 18
KLSWDCTTDLNQMHSVA	ESEVAVD	QQYAHLPLT	1.58 1.40 1.01 0.94 1.97 1.36	0 of 18
FFSLIQDSYGEANNSIA	ERNTKAH	QQYSRLPLV	nd 1.04 1.59 nd 1.79 2.47	0 of 18
STTSHEEESKGAHASVA	EASMLES	QQYHRLPLD	1.04 1.02 1.02 nd 1.84 nd	0 of 18
QMTGQLFEQGNRSGPIA	HESMRET	QQYAQLPLT	1.74 1.36 1.15 0.86 1.00 1.85	1 of 18 (1.85)
MVSMMPNEPTIDSNAIA	DHSQRNT	QQYDRLPLS	nd 1.90 1.44 2.80 0.74 1.61	0 of 18
KISDACQTDMGRMSAVA	DDDVAND	QQYARLPLA	1.94 1.54 1.76 1.38 2.01 2.49	2 of 18 (3.58)
QLEWYNSTLTEAKNSVA	GVEHRMN	QQYMRLPLF	1.07 0.80 0.91 0.94 0.63 0.95	3 of 18 (2.91)
SLHMMPPVGYAYDENVA	NASQLFS	QQYFRLPLT	nd 2.28 2.52 2.90 1.67 nd	0 of 18
NMTGIKEMQSNNINNIA	ENNERFQ	QQYFQLPLS	0.84 0.47 0.53 0.49 0.62 0.71	0 of 18
SVTIYTDENGLKMQSIA	GAGNRML	QQYHRLPLT	0.92 0.52 1.48 1.12 0.53 1.04	0 of 18
SFERGLAGSSLVQNNVA	EGKTLWE	QQYMRLPLA	0.08 -0.09 -0.09 0.00 -0.09 0.04	0 of 18
QLPFERGDGYLEKNNVA	EGTESSH	QQYMRLPLT	1.09 0.78 0.91 0.64 0.66 0.92	3 of 18 (2.75)
KLEYWADTFHQNDNSIA	HMTSVRD	QQYHRLPLA	nd nd nd nd nd nd	0 of 18
RLRFQDLGWSYDANNIA	GATNSIK	QQYGRLPLT	0.28 0.38 0.29 0.17 0.27 0.34	1 of 18 (3.14)
QIAMEMYHGLNDNQNVA	DAMTYEK	QQYSRLPLF	nd nd nd nd 2.50 nd	0 of 18

The first 2 variants above that were never detected:

CDR-L1	CDR-L2	CDR-L3	replicates, log10 nM	signal with controls
KIEWYPMENRGTIQAIA	EASTIYN	QQYMHLPLS	nd nd nd nd nd nd	0 of 18
KVSIFMLTMDNAWSSIA	NMAAERT	QQYQRLPLS	nd nd nd nd nd nd	0 of 18

The parent sequence was in this pool as ten entries: three were never detected, three once, and four in most replicates, with averages from 0.34 to 2.37.
The authors' rule: three or more of the six replicates give a measured affinity, fewer mean a poor binder.
Empty control strains, which show no peptide, gave a signal in 4% of pairings with all light chain designs; the median was 2.64 and 95% of these signals were weaker than 1.59. No background was subtracted. Also given: how often the same scFv was detected with the empty control strains, with their mean in brackets.
A sequence measured in both rounds can read differently, since the two assays cover different ranges.